- UV absorption wavelength (350-400 nm band region): 385 nm
- E1^1 (extinction coefficient of absorption) (at the stated absorption wavelength): 159
Substance: chloro-thioxanthone

Source: US10040893B2, “Polymeric photoinitiators and photoinitiator monomers” (Coloplast A/S, priority 2012, dated 2018)
